{"sequences": {"note": "The chains behind the UniProt entries cited, without tags or fusion partners. Residues count along the entry.", "UniProt P05121, 24-402 limits assumed": "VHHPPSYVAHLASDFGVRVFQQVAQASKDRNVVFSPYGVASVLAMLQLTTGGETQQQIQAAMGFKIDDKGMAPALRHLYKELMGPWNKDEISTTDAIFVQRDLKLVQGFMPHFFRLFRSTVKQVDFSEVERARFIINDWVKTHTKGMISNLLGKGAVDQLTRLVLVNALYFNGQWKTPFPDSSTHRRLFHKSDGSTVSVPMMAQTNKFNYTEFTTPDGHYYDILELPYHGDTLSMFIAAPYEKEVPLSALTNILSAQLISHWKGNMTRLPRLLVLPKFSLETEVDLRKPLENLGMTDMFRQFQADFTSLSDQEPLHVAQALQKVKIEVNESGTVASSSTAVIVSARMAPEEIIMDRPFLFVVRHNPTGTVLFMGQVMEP"}, "source": "patent US9120744B2", "about": "“Plasminogen activator inhibitor-1 inhibitors and methods of use thereof to modulate lipid metabolism” (THE REGENTS OF THE UNIVERSITY OF MICHIGAN, priority 2007, dated 2015)", "molecular_target": "recombinant active human PAI-1 (Homo sapiens (Human), UniProt P05121)", "experiment": "pH dependence of PAI-1 inhibition, fluorogenic uPA (or tPA) assay", "type": "biochemical", "settings": "pH 6.5 to 8.5", "data": [{"smiles": "O=C(O[C@@H]1Cc2c(O)cc(O)cc2O[C@@H]1c1cc(O)c(O)c(O)c1)c1cc(O)c(O)c(O)c1", "values": [{"measurement": "effect of pH on PAI-1 inhibition (in words)", "result": "increased with increasing pH to 8.5"}]}]}
